Measurements from PMC7321161, “The Intriguing Effects of Substituents in the N-Phenethyl Moiety of Norhydromorphone: A Bifunctional Opioid from a Set of “Tail Wags Dog” Experiments” (Molecules, 2020).

The chains behind the UniProt entries cited, without tags or fusion partners. Where a name states a change or a piece, a line headed by the entry shows the natural chain unless it says otherwise.
UniProt P41145: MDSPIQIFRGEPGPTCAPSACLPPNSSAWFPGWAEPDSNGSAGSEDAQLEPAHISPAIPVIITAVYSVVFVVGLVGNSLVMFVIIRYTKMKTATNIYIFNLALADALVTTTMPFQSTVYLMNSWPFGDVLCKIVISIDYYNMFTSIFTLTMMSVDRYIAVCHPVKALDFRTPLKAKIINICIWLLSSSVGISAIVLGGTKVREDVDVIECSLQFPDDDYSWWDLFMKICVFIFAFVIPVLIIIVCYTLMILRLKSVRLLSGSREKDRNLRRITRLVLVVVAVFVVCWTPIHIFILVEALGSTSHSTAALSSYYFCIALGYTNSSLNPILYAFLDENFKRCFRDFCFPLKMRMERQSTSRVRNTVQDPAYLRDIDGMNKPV

Molecular target: human κ-opioid receptor (OPRK1) (Homo sapiens, UniProt P41145)
Experiment: Forskolin-induced cAMP accumulation assay, HitHunter CHO-K1 κ receptor
Type: cell-based

With “(+)-(5α,7α,8β)-N-methyl-N-[7-(1-pyrrolidinyl)-1-oxaspiro[4.5]dec-8-yl]-benzeneacetamide” the “KOR cAMP % Efficacy” value (normalized to vehicle and forskolin control) was 101.2 ± 1.4% and the EC50 (read-out: KOR cAMP Agonist Potency ± SEM, inhibition of forskolin-induced cAMP accumulation) was 0.7 nM.
